These results are taken from article PMC5995306.

In one assay the target is Tet-SL-YFP (UniProt P04637). As to the kind of experiment: native MS.
The next assay addresses YFP-SL-Tet (UniProt P04637). As to the kind of experiment: native MS.

As to “Tet-SL-YFP (from UniProt P04637 325-356)”, the stoichiometry N (commonly the number of molecules, sites or subunits per partner or assembly) with Tet-SL-YFP was 4.

Substance “YFP-SL-Tet (from UniProt P04637 325-356)” came in with a stoichiometry N in the assay with YFP-SL-Tet of 4.
